Assay results reported in PubChem BioAssay AID588795 (National Center for Advancing Translational Sciences (NCATS), 2011).
The list shows a part of the results, in another mix than the full data. The source made the active and inactive calls. Calls follow the shape of the dose curve; as a rule, active = well fitted inhibition curve with a large enough effect; inconclusive = small, poorly fitted or top-dose-only effect; inactive = no such curve, though single readings can be large or run the other way.

Protein sequences, listed by entry. Tags and fused reporters are not part of them.
UniProt P39748, whole entry: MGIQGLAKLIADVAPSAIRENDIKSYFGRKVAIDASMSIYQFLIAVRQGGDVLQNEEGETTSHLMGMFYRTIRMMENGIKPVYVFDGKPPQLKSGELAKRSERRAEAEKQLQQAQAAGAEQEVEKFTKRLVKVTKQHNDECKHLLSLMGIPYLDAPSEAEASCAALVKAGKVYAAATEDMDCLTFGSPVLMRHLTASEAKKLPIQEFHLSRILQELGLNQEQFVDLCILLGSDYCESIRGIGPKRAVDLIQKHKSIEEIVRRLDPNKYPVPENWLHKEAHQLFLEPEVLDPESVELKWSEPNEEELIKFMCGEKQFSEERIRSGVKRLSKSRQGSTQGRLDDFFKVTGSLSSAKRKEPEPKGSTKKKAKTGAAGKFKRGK

Each compound was assayed against Flap endonuclease 1 (Homo sapiens) (UniProt P39748) (assay: qHTS Assay for the Inhibitors of Human Flap endonuclease 1 (FEN1).). Details: Recombinant FEN1 flap cleavage, fluorescence, 15 min; at 114 µM (top of the series).
% is scaled to controls: 0 for no effect and ±100 for the full control effect.
Also: nearly all actives have a fitted effect of over 65% in size.

SMILES	activity change, negative = inhibition
CCC(=O)N(c1ccccc1)C1(COC)CCN(CCc2cccs2)CC1	inactive: -4.95%
CCC(=O)N(c1ccccc1)C1(COC)CCN(CCn2nnn(CC)c2=O)CC1	inactive: 12.6%
